The target in the assay is ATP-dependent translocase ABCB1 (Homo sapiens, UniProt P08183). The assay is described as follows: Inhibition of human P-glycoprotein mediated [3H]vinblastine transport in human Caco-2 cells. It is filed as cell-based. (Caco-2 monolayers are a common model of the intestinal barrier.)

Protein sequences, listed by entry. Tags and fused reporters are not part of them.
UniProt P08183, whole entry: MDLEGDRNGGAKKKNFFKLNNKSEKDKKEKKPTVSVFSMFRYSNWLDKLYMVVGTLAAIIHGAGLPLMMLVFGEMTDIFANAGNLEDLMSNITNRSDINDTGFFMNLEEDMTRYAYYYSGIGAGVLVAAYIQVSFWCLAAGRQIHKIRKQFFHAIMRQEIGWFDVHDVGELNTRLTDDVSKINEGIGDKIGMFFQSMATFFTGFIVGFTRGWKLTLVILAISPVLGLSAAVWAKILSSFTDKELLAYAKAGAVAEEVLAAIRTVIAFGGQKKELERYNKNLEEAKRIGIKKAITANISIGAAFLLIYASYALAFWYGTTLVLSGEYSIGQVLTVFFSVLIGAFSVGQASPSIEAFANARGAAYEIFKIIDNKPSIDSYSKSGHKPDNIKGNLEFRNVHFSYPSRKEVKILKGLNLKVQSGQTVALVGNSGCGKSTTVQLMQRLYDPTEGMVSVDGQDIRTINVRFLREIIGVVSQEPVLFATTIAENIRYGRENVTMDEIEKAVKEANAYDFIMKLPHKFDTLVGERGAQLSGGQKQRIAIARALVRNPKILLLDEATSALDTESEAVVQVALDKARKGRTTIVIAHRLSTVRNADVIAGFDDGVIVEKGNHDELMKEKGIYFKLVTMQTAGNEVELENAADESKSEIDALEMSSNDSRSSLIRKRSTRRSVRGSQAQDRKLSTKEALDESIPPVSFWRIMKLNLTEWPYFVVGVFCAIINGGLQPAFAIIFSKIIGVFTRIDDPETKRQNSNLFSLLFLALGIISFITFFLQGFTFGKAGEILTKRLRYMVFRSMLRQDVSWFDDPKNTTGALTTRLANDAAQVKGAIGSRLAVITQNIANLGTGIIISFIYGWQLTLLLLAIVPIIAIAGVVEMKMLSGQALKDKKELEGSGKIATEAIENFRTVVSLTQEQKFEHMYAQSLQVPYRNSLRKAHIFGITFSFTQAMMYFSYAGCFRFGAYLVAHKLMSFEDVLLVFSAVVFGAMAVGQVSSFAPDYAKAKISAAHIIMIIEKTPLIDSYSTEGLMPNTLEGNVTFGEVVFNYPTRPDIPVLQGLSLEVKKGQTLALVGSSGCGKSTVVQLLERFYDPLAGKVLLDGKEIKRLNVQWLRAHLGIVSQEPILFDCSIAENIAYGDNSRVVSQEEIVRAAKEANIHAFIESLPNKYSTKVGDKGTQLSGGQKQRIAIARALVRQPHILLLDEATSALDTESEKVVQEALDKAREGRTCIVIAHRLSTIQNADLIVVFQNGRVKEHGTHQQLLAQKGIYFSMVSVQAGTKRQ

pEC50: −log10 of the molar value.

Consider `COc1cccc(CCc2ccccc2OCc2cccc(OC)c2OC)c1`, for which the pEC50 was 6.60.

Usually pEC50 stands for the negative decadic logarithm of the EC50, by convention in mol/L. Read a low pEC50 as a large EC50.
